The values below come from patent US20240209028A1, “CNP COMPOUNDS” (priority 2022, published 2024).

Read-outs that look alike come from different tables or passages of the source.

A short description of series [1]: PK of CNP compounds after i.v. and s.c. administration to rats. The conditions noted are these: male, Sprague Dawley, in vivo, rat. As for the experimental part:
In order to assess the i.v. and s.c. PK/PD profile of CNP compounds of the present invention, formulations of CNP compounds were administered to rats, blood samples taken and exposure and cGMP response measured.
Quantitative plasma analysis of CNP-compounds: Plasma concentrations of CNP compounds were assayed by plasma protein precipitation and analysed by turboflow liquid chromatography mass spectrometry (TF-LC-MS). Calibrators were prepared by spiking either blank rat or minipig plasma with the relevant CNP compound in the range from 0.5 to 2000 nM. Calibrators, plasma blanks or study samples were prepared for TF-LC-MS by protein precipitation by adding three or four volumes of either ethanol or methanol containing 20 nM of internal standard to one volume of sample. For some compounds, formic acid was added to the precipitation reagent (the final concentration was 1% v/v). After the addition of the precipitation reagent, the mixture was centrifuged at 6200 rpm at 4° C. for 30 minutes. After centrifugation, one volume of supernatant was mixed with two volumes of water (with 1% v/v formic acid). The mixture was analysed by TF-LC-MS using a Cyclone turboflow column (0.5×50 mm, ThermoFisher Scientific) and either a XBridge Protein BEH C4 3.5 μm 300 Åor a XBridge Protein BEH C18 3.5 μm 130 Åanalytical column (both were 50×2.1 mm and obtained from Waters). […] The mass spectrometer was operated in positive ionisation mode. A TSQ Altis mass spectrometer (ThermoFisher Scientific) was used as detector in selected reaction monitoring mode (specific transition were optimised for each CNP compound). Linear calibration curves (weighed 1/×2) were used for calculating the concentration in the plasma samples. Quality control samples were included. The deviation between nominal and calculated concentration in the calibrators and quality control samples were below 15%.
Animals and dosing: Groups of 4-6 rats (male, Sprague Dawley, 350 g at arrival, Janvier, France) per compound and route of administration were dosed with a CNP compound formulated either in A) 8 mM sodium phosphate, 250 mM glycerol, 0.007% polysorbate 20, pH 7.4 or B) 5 mM sodium acetate, 250 mM glycerol, 0.007% polysorbate 20, pH 4.0 depending on the respective compound. S.c. dose was 300 nmol/kg, at a concentration of […] resulting in a dosing volume of 0.3 mL/kg, whereas i.v. dose was 100 nmol/kg, at a concentration of […] resulting in a dosing volume of 1 mL/kg. […]
Analysis: PK parameters were calculated by non-compartment analysis (NCA) using software Phoenix WinNonlin (ver. 8.1 or later, Certara) for each animal. Clearance (Cl) was calculated as: Dose/AUCinf (linear up, log down). […] Bioavailability was calculated as dose normalized AUC's: (AUC(sc)/Dose(sc))/(AUC(iv)/Dose(iv)). […]

Series [2] is described as follows: PK after i.v. and s.c. administration to Göttingen minipig. Conditions: female, Göttingen minipig and domestic LYD pig, in vivo, sc; Table 21 and 22 (minipig and domestic LYD pig); read-out: subcutaneous bioavailability (F). As for the experimental part: The purpose of this study was to investigate pharmacokinetic and pharmacodynamic properties after intravenous (i.v.) and subcutaneous (s.c.) administration to Gottingen Minipig and domestic LYD pig, and to estimate bioavailability after s.c. dosing. Quantitative plasma analysis of CNP and cGMP levels were performed as described in
Animals and dosing: The pharmacokinetic and pharmacodynamic studies in Gottingen Minipig or domestic LYD pig were conducted at CRO Minerva Imaging or Novo Nordisk A/S, respectively. CNP compounds were dosed to normal female 1) Gottingen minipigs 6-12 months of age with an average weight of 22 kg or 2) domestic LYD pigs 4-5 months of age with and average weight of 80 kg. At least one week prior to dosing, permanent central venous catheters were implanted for blood sampling and intravenous (i.v.) dosing. For subcutaneous (s.c.) dosing, the pigs were ultrasound scanned and the optimal injection area laterally on the neck marked by a permanent tattoo. An insulin pen (NovoPen Echo or NovoPen 4) and insulin needle (NovoFine 32G/4 mm or NovoTwist 32G/5 mm) were used for accurate deposition of the CNP formulations in the subcutaneous fat tissue with the needle perpendicular to the skin.
CNP compounds were formulated according to the principles in General Methods of Preparation—Method G and were either A) 8 mM sodium phosphate, 250 mM glycerol, pH 6.5, B) 5 mM sodium acetate, 250 mM glycerol, pH 4.0, C) 5 mM sodium acetate, 240 mM propylene glycol, pH=4.0, D) 8 mM sodium phosphate, 250 mM glycerol, pH 7.5 or E) 20 mM sodium phosphate, 223 mM propylene glycol, pH 6.0.
Intravenously, the CNP compounds were dosed at 30-60 nmol/kg to Minipig and 15-43 nmol/kg to domestic pig using formulations A-E. Subcutaneously, the CNP compounds were dosed at 55-62 nmol/kg to Minipig and 20-30 nmol/kg to domestic pig using formulations A-D.
Sampling: Blood samples of approximately 1 mL were collected pre dose and up to 14 days post dose into EDTA-coated tubes (8 mM) for cGMP and CNP compound analysis by LC-MS. In few instances, cGMP was only analysed up to 48 hours post dose after intravenous dosing in domestic LYD pig. The blood samples were kept on wet ice for maximum 30 minutes until centrifugation for 10 minutes at 4° C. and minimum 1500G, and the plasma samples were stored at −20° C. until analysis.
Plasma concentration-time profiles were analyzed by non-compartmental PK analysis using Phoenix WinNonlin 8.1, Pharsight Inc., Mountain View, CA, USA. Calculation of the area under the plasma concentration-time curve (AUC) was based on the “linear up log down” method, and uniform weighting was used for estimation of the terminal rate constant (λz). S.c. bioavailability (F) was calculated as the dose-normalized AUC (AUC/dose) after s.c. administration divided by the AUC/dose after i.v. administration. […]

In the case of `CCCC[C@@H]1NC(=O)[C@H](CO)NC(=O)CNC(=O)[C@H]([C@@H](C)CC)NC(=O)[C@H](CCCNC(=N)N)NC(=O)[C@H](CC(=O)O)NC(=O)[C@H](CC(C)C)NC(=O)[C@H](CCCCN)NC(=O)[C@H](CC(C)C)NC(=O)CNC(=O)[C@H](Cc2ccccc2)NC(=O)[C@@H](NC(=O)CNC(=O)[C@H](CCCCN)NC(=O)[C@H](CO)NC(=O)[C@H](CC(C)C)NC(=O)CNC(=O)[C@H](CCCCN)NC(=O)[C@H](CCCCN)NC(=O)[C@H](CCC(N)=O)NC(=O)[C@H](C)NC(=O)CNC(=O)[C@H](CCCCN)NC(=O)[C@H](Cc2ccc(O)cc2)NC(=O)[C@H](CCCCN)NC(=O)[C@H](CCCNC(=N)N)NC(=O)[C@H](C)NC(=O)[C@H](CCC(N)=O)NC(=O)COCCOCCNC(=O)COCCOCCNC(=O)CC[C@H](NC(=O)CCCCCCCCCCCCCCCCC(=O)O)C(=O)O)CSSC[C@@H](C(=O)O)NC(=O)CNC(=O)[C@H](CC(C)C)NC(=O)CNC(=O)[C@H](CO)NC1=O` [compound 0312], the clearance in series [1] (iv, i.v., about 100 nmol/kg, read-out: Cl (L/hr/kg), i.v. administration (converted)) is 0.00738 L/h/kg. Moreover, the half-life in series [1] (iv, i.v., about 100 nmol/kg, read-out: T½ (hr), i.v. administration (converted)) is 9.4 h; in series [1] (sc, s.c., about 300 nmol/kg, read-out: T½ (hr), s.c. administration (converted)), 8.24 h. Besides, the bioavailability in series [1] (sc, s.c. bioavailability, about 300 nmol/kg, read-out: F (%), s.c. administration) was 20.2%; in series [2] it was 7 to 13%.
